Target: T1, S2-receptor (Rattus norvegicus, UniProt P14842)
T1 construct: Caudal arteries from fasted male rats; from tissue; host or cells: rat caudal artery, helical strips
Experiment: antagonistic activity on the effect of serotonin on the caudal artery of the rat (caudal artery test)
Conditions: rat caudal artery strips; serotonin 40 ng/ml; 5 minutes after adding the drug; read-out: ED50 (minimal concentration which reduces the amplitude of the serotonin-induced contraction to at least 50% of its normal value) (converted)
Text: The S2 -antagonistic activity of the compounds of formula (I) their possible stereochemically isomeric forms and their pharmaceutically acceptable acid addition salts is evidenced by the experimental data obtained in the caudal actery test.
ANTAGONISTIC ACTIVITY ON THE EFFECT OF SEROTONIN ON THE CAUDAL ARTERY OF THE RAT
Caudal arteries from fasted male rats (210-235 g) were used in the test. Two helical strips having a length of 5-6 cm and a width of 2 mm. were obtained from each artery and mounted vertically in a 100 ml organ bath containing an oxygenated Krebs-Henseleit solution. Submaximal contractions of the arterial strips were produced by adding single doses of serotonin (40 ng/ml) to the organ bath for 2 minutes with each time an interval of 10 minutes. The amplitude of the contraction was measured before and 5 minutes after adding the drug. After washing out, the agonist was added again three times in order to see whether the contraction was restored and normalized. […] In this connection the ED50 -values are the minimal concentrations of the concerned drugs which reduce the amplitude of the contraction to at least 50% of its normal value.

By UniProt entry, the sequences of proteins in these tests, tags left out.
UniProt P14842, whole entry: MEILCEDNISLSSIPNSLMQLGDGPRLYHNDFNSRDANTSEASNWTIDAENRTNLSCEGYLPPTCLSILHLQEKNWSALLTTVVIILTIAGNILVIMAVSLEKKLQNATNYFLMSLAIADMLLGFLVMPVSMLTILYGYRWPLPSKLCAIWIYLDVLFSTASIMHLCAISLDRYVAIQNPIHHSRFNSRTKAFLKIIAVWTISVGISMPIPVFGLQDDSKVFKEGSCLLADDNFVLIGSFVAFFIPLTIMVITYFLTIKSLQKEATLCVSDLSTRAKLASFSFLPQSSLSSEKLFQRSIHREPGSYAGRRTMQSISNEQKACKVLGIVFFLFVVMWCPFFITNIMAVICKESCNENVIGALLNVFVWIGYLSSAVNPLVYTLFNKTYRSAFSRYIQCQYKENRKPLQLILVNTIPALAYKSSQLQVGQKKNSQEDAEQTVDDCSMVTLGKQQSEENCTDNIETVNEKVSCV

Cc1nc2sccn2c(=O)c1CCN1CCC(=C(c2ccc(F)cc2)c2ccc(F)cc2)CC1 [Compound 1, 6-[2-[4-[bis(4-fluorophenyl)methylene]-1-piperidinyl]ethyl]-7-methyl-5H-thiazolo[3,2-a]pyrimidin-5-one]
IC50: 0.168 pM

— patent US4533665A, “[[Bis(aryl)methylene]-1-piperidinyl]alkyl-pyrimidinones” (Janssen Pharmaceutica, priority 1984, dated 1985)
